In ChEMBL document CHEMBL4680377, “Discovery of a Novel Series of Pyridone-Based EP3 Antagonists for the Treatment of Type 2 Diabetes” (ACS Med Chem Lett, 2021):

Target: T1, Prostaglandin E2 receptor EP3 subtype (Rattus norvegicus) (UniProt P34980)
T1 sequence (whole entry): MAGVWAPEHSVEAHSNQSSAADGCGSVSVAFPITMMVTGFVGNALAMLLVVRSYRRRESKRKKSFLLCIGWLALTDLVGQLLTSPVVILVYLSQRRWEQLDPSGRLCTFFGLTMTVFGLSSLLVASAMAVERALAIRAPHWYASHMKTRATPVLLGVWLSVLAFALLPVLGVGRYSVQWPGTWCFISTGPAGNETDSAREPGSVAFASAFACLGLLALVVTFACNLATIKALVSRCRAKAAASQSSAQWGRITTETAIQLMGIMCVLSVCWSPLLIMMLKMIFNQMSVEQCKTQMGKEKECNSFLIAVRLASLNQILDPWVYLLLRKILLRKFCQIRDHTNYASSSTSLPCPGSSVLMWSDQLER
Experiment: Antagonist activity at EP3 in rat INS-1E cells assessed as reversal of sulprostone induced suppression of glucose-stimulated insulin secretion at 0.03 to 10 uM measured after 4 hrs by HTRF assay
Assay type: cell-based
Details: filed as antagonist, dose 0.03-10 µM

Activity: Active
SMILES: CC(C)C(/C=C1\OC(=O)NC1=O)c1ccc(-c2ccc3cccc(F)c3c2)[nH]c1=O (stereo unspecified)

The source made the active and inactive calls. The rule behind the calls is not given here.
